In this data set the test system is NCI DTP 60 cell line panel. Kind of data set: NCI DTP 60 Cell Line screen: Growth Inhibition (GI50), Total Growth Inhibition (TGI), Lethal Concentration (LC50/LD). In kind it is cell-based, human. The following applies: mean over NCI DTP 60 cell line panel; lethal concentration dose (cytotoxic effect). The method, then:
In particular, an algorithm based on the obtained in vitro cell culture values (i.e. growth inhibition values (GI50), or the total growth inhibition (TGI), or the lethal concentration (LC50)) of cell lines (e.g., NCI60 cells) subjected to treatment with an illudofulvene, and gene expression is determined in these same cell lines (e.g., by microarray analysis, reverse transcriptase polymerase chain reaction (RT-PCR), quantitative real-time PCR (qPCR), or next generation sequencing). After normalization, genes with, e.g., a Pearson correlation coefficient greater than about 0.5 or below about −0.5 to one of the obtained in vitro cell culture values, can be classified as biomarkers of sensitivity or resistance, respectively. A probability or significance value can also be calculated for the correlation between the obtained in vitro cell culture values (i.e. growth inhibition values (GI50), or the total growth inhibition (TGI), or the lethal concentration (LC50)) and the normalized expression of a specific gene.
One can determine the growth inhibition (GI50), total growth inhibition (TGI), or lethal concentration (LC50) for a drug for each of the cell lines in the NCI DTP 60 cell line panel. One can use these 3 values to search for correlations against all gene expressions in all cell lines using the NCI's publicly available CELL MINER Software. […]

Here are results for 1 molecule from US11160807B1, “Methods, compositions and devices for treating cancer with illudofulvenes” (AF Chemicals, LLC, priority 2018, dated 2021).

For `CC1=C2C(=C[C@@](C)(CO)[C@@H]2O)C(=O)[C@](C)(O)C12CC2` [Illudin S, illudin S, reference compound], the “Mean LD50 cytotoxic” value was 511 nM.
